From US20260174734A1, “PHARMACEUTICAL COMPOSITION” (MEXICHEM FLUOR S.A. DE C.V., priority 2016, published 2026)

Assay: In vitro aerosolization performance from MDI (Next Generation Impactor)
Type: physicochemical
Conditions: HFA-152a propellant, T = 0, combination formulation
Procedure: The nominal dose of glycopyrronium bromide was 50 μg, the nominal dose of indacaterol was 100 μg and the nominal dose of fluticasone propionate was 125 μg.

C[N+]1(C)CCC(OC(=O)C(O)(c2ccccc2)C2CCCC2)C1 (stereo not shown) [Glycopyrronium Bromide, glycopyrronium bromide]
FPFED (%) fine particle fraction of the emitted dose: 46.5 ± 2.9%
